Columns and labels:
[1] = in vitro clonogenic / indirect cytotoxicity assays, cell line not given; type: cell-based
From the text: Cell-binding agent maytansinoid conjugates of the invention can be evaluated for their ability to suppress proliferation of various cell lines in vitro. For example, cell lines such as the human colon carcinoma line COLO205, the human melanoma cell line A375, the human myeloid leukemia cell line HL60, the human breast carcinoma line SKBR3, or the human epidermoid carcinoma cell line KB can be used for the assessment of cytotoxicity of these conjugates. Cells to be evaluated can be exposed to the compounds for 24 hours and the surviving fractions of cells measured in direct assays by known methods. (See, e.g. Goldmacher et al., 135 J. Immunol. 3648-3651 (1985), and Goldmacher et al., 102 J. Cell Biol. 1312-1319 (1986).) IC50 values can then be calculated from the results of the assays.
Further, a trastuzumab conjugate of DM1 synthesized with SIAB was also cytotoxic in clonogenic assays (FIG. 28).

[2] = tested on: MCF-7 breast carcinoma cell line xenograft; assay: MCF-7 breast carcinoma xenograft model in mice; type: in vivo, SCID mice; details: FIG. 10C
Method: Antibody conjugates with DM1 using the SMCC linker show anti-tumor efficacy against human tumor xenografts in mice (FIGS. 10A-C). […] In this experiment, one group of five animals bearing established subcutaneous tumors was treated with huC242-SMCC-DM1 at a dose of 150 μg/kg of conjugated DM1. Tumor sizes were measured periodically and graphed vs. time after tumor inoculation. […] In this experiment, three groups of five animals each bearing established subcutaneous SNU tumors were treated with huC242-SMCC-DM1 at doses of 15 μg/kg, 30 μg/kg, and 60 μg/kg of conjugated DM1, respectively. Tumor sizes were measured periodically and graphed vs. time after tumor inoculation.

| Substance | specific activity in vitro ([1]; FIGS. 8A-D and 25) | tumor response [2] | cytotoxicity in clonogenic assays in vitro ([1]; FIGS. 9, 22, 28) |
| --- | --- | --- | --- |
| trastuzumab-SMCC-DM1: trastuzumab antibody linked to DM1 via the non-cleavable cross-linking reagent SMCC | Specific activity | significant tumor regression | – |
| trastuzumab-SIAB-DM1: trastuzumab antibody linked to DM1 via the non-cleavable crosslinker SIAB | – | – | cytotoxic |

Reference: patent US8088387B2, “Method of targeting specific cell populations using cell-binding agent maytansinoid conjugates linked via a non-cleavable linker, said conjugates, and methods of making said conjugates” (Immunogen Inc., priority 2003, dated 2012)
